In published antibiotic growth screens (doi:10.1038/s41589-023-01349-8) one finds relative growth data, which are given here for 106 compounds.

This is one part of the list.

The experiment has as its system A. baumannii ATCC 17978. Nature of the experiment: relative growth (fraction of control); higher = less inhibition. Conditions: 50 µM.
In the case of `Nc1ccc2c(c1)CNCC2`, the relative growth is 0.958.
In the case of `O=C(c1ccccc1)C12CN3CN(CN(C3)C1)C2` it was 0.938.
As for `C/C=C1/C[C@@H](C)[C@](O)(CO)C(=O)OCC2=CCN3CC[C@@H](OC1=O)[C@@H]23`, the relative growth stood at 0.879.
To `O=c1[nH]oc2c1CCNC2` belongs 1.02; to `CC1(C)C(=O)[C@@H]2O[C@@H]2[C@@]2(C)C1C[C@@H](O)[C@]1(C)C2CC[C@@]2(C)[C@H](c3ccoc3)OC(=O)C3OC321` (stereo partly drawn) [1,2alpha-EPOXYDEACETOXYDIHYDROGEDUNIN], 1.17.
To `CC1(C)CCC(C)(C)c2cc(-c3csc(CC#N)n3)ccc21` belongs 1.02; to `COc1cccc(C=O)c1OC`, 0.963.
On to `OCC(O)[C@H]1O[C@@H]2O[C@H](C(Cl)(Cl)Cl)O[C@@H]2[C@H]1O` (stereo partly specified), for which the relative growth came to 1.07.
In the case of `COC[C@]12CN(C=O)C3[C@@H]4[C@H](OC)C1[C@]3(C1CC3(O)C(OC)C(O)C4(OC(C)=O)C1C3OC(=O)c1ccccc1)[C@@H](OC)C[C@H]2O` (stereo partly specified) it was 1.09.
To `O=[N+]([O-])O[C@H]1CO[C@H]2[C@@H]1OC[C@H]2O[N+](=O)[O-]` belongs 1.09.
To `C=CCc1ccc(OC)cc1` belongs 1.06; to `O=c1cccc2n1C[C@@H]1CNC[C@H]2C1`, 1.16; to `COc1cc2ccc(=O)oc2c2ccoc12`, 1.07.
`NCC1(CC(=O)O)CCCCC1` came in with a relative growth of 0.962.
In the case of `Cc1cc(C)nc(NC2=NCCN2)n1` it was 0.944; in that of `O=C(O)[C@H]1C[C@H]2CCCCN2C1`, 0.936.
In the case of `COC(=O)[C@]1(Cc2ccccc2N=[N+]=[N-])N=C(c2ccc(OCCCO)cc2)O[C@@H]1c1ccccc1CN=[N+]=[N-]` it was 0.919; in that of `NC1C[C@H]1c1ccccc1.O=S(=O)(O)O` (stereo partly specified), 0.968.
In the case of `CC(O)(CS(=O)(=O)c1ccc(F)cc1)C(=O)Nc1ccc(C#N)c(C(F)(F)F)c1` (stereo unspecified) it was 0.918.
Regarding `C[N+]12CCC(CC1)C(OC(=O)C(O)(c1ccccc1)c1ccccc1)C2.[Br-]` (stereo unspecified), the relative growth was 0.956.
To `CN1CCN(Cc2ccc[nH]2)CC1` belongs 0.981.
In the case of `C=CCOC(=O)[C@@H]1[C@H](C(=O)OC)N(C)[C@@H](c2ccccc2)[C@]12C(=O)Nc1ccc(I)cc12` it was 1.13.
`COCCCNC(=O)[C@]1(Cc2ccccc2N=[N+]=[N-])N=C(c2ccc(OCCCO)cc2)O[C@@H]1c1ccccc1N=[N+]=[N-]` gave a relative growth of 1.01.
In the case of `CCOC(=O)c1cncn1[C@H](C)c1ccccc1` it was 1.23; in that of `CNC(=O)Oc1cccc2ccccc12`, 0.949; in that of `O=[N+]([O-])c1c(NCCO)ccc2nonc12`, 0.977.
To `O=C(O)C(Cl)Cl.[NaH]` belongs 1.07; to `CN1CCc2cc3c(cc2[C@@H]1O)OCO3`, 1.14; to `COc1cc(C=O)cc(OC)c1OC`, 0.993.
In the case of `NCCc1cccc2ccccc12` it was 0.988.
The compound `Cc1[nH]c2ccccc2c1CN(C)C` returned a relative growth of 1.05.
To `COC(=O)[C@@]1(Cc2ccccc2N=[N+]=[N-])N=C(c2ccc(OCCCO)cc2)O[C@H]1c1ccccc1CN=[N+]=[N-]` belongs 1.04.
The compound `NCCc1nnc2n1CCCCC2` had a relative growth of 0.988.
`O=C(Cc1ccccc1)c1ccccc1` displayed a relative growth of 0.858.
To `CC(C)c1cccc(C(C)C)c1O` belongs 1.13.
With `Cc1nccc2c1[nH]c1cc(O)ccc12`, the relative growth stood at 0.83.
To `O=C(O)CC[N+](=O)[O-]` belongs 0.813.
With `CN1C(=O)[C@@]23C[C@]4([C@@]56C[C@]78SS[C@](CO)(C(=O)N7[C@@H]5Nc5ccccc56)N(C)C8=O)c5ccccc5N[C@H]4N2C(=O)[C@@]1(CO)SS3`, the relative growth was found to be 0.335.
`CCNC(=O)[C@H]1O[C@H](n2cnc3c(N)ncnc32)[C@@H](O)[C@@H]1O` returned a relative growth of 0.973.
To `C/C=C/c1ccc2c(c1)OCO2` belongs 1.1; to `N.N.[Cl][Pt][Cl]`, 0.904; to `C=CCOC(=O)[C@@H]1[C@@H](C(=O)OC)N(C)[C@@H](c2ccccc2)[C@]12C(=O)Nc1ccc(I)cc12`, 1.13.
On to `CN1C[C@H](CNC(=O)OCc2ccccc2)C[C@@H]2c3cccc4c3c(cn4C)C[C@H]21`, for which the relative growth was determined as 0.978.
`Br.COc1ccc2c(c1)[C@]13CCCC[C@@H]1[C@H](C2)N(C)CC3` yielded a relative growth of 0.675.
To `CC[C@H]1C2CC3[C@@H]4N(C)c5ccccc5[C@]45C[C@@H](C2C5O)N3[C@@H]1O` (stereo partly specified) belongs 0.904.
In the case of `O=C(C1CCCC1)N1C[C@@H]2CCNC[C@@H]21` it was 1.03; in that of `COc1cccc(-c2ccc3c(CCN)c[nH]c3c2)c1`, 0.741; in that of `CCC[C@@H](CN)c1ccc(F)cc1`, 0.883.
To `N#C[C@@]12[C@H]3CC=C[C@@H]1N2CC3` (stereo partly specified) belongs 0.957; to `COc1cc2c(c(OC)c1OC)-c1ccc(OC)c(=O)cc1[C@@H](NC(C)=O)CC2`, 1.13; to `CC1(C)NN1CCCN1NC1(C)C` (stereo unspecified), 0.996.
In turn, `C(=N/C12CN3CN(CN(C3)C1)C2)/c1cccnc1` registered a relative growth of 0.964.
In the case of `O.O=c1ccc2cc(O[C@@H]3O[C@H](CO)[C@@H](O)[C@H](O)[C@H]3O)c(O)cc2o1` it was 1.13; in that of `CC(=O)OCC1=C(C(=O)[O-])N2C(=O)[C@@H](NC(=O)CCCC(N)C(=O)[O-])C2SC1.[Zn+2]` (stereo partly specified), 0.901.
In the case of `Cc1c[nH]cn1` it was 0.898; in that of `CC[C@]12C=CCN3CC[C@@]4(c5ccc(OC)cc5N(C)C4[C@@](O)(C(=O)OC)[C@@H]1OC(C)=O)[C@@H]32` (stereo partly specified), 1.15; in that of `CN1C2CCC1CC(OC(=O)C(CO)c1ccccc1)C2.O=S(=O)(O)O` (stereo unspecified), 0.982.
In the case of `CC1=C2C(=CO[C@H](C)[C@H]2C)C(O)=C(C(=O)O)C1=O` it was 0.843.
`C[C@H]1CN([C@@H](C)CO)C(=O)CCCn2nncc2CO[C@@H]1CN(C)C(=O)Oc1cccc2ccccc12`: the relative growth stood at 0.988.
To `N#Cc1c(Cl)c(Cl)c(Cl)c(C#N)c1Cl` belongs 1.08; to `C[C@]12[C@H](O)CC3C(CC[C@@H]4C[C@@H](O)CC[C@]34C)[C@@]1(O)CC[C@@H]2C1=CC(=O)OC1` (stereo partly specified), 0.913.
Turning to `CNC(=O)Oc1ccc2c(c1)[C@]1(C)CCN(C)[C@@H]1N2C.O=C(O)c1ccccc1O`, the relative growth turned out to be 0.89.
In the case of `CC(C)=CCCC1(C)C=Cc2c(O)c3c(c(CC=C(C)C)c2O1)OC12C(=CC4CC1C(C)(C)OC2(C/C=C(/C)C(=O)O)C4=O)C3=O` (stereo unspecified) it was 0.895; in that of `C=C1CC2C(CC[C@]3(C)C(=O)CCC23)[C@@]2(C)C=CC(=O)C=C12` (stereo partly specified), 1.04.
To `N#Cc1nn(-c2c(Cl)cc(C(F)(F)F)cc2Cl)c(N)c1S(=O)C(F)(F)F` (stereo unspecified) belongs 0.98.
In the case of `C=CCOC(Cn1ccnc1)c1ccc(Cl)cc1Cl.O=S(=O)(O)O` (stereo unspecified) it was 0.829.
The compound `NCCN1CCN(c2ccc(F)cc2)CC1` showed a relative growth of 1.03.
In the case of `CN[C@@H](C)[C@H](O)c1ccccc1.Cl` it was 0.968; in that of `C=C[C@H]1[C@H](O[C@@H]2O[C@H](CO)[C@@H](O)[C@H](O)[C@H]2O)OC=C2C(=O)OCC[C@H]21`, 0.983.
To `c1ccc2c(c1)Nc1ccccc1S2` belongs 0.946.
In the case of `O[C@H]1[C@H]2[C@H](O)CCCN2C[C@H]1O` it was 1.13; in that of `COc1ccc([C@@H](CN)C(C)C)cc1OC`, 0.928.
`Cc1ccc(/N=C/N(C)/C=N/c2ccc(C)cc2C)c(C)c1` returned a relative growth of 1.03.
`C[C@]12CCC(=O)C[C@@H]1CC[C@@H]1[C@@H]2CC[C@]2(C)C(=O)CC[C@@H]12` [5alpha-ANDROSTAN-3,17-DIONE] had a relative growth of 0.971.
`COC(=O)[C@]1(Cc2ccccc2N=[N+]=[N-])N=C(c2ccc(OCCCO)cc2)O[C@@H]1c1ccccc1N=[N+]=[N-]`: the relative growth was determined as 1.27.
To `CC(C)N(CCC(C(N)=O)(c1ccccc1)c1ccccn1)C(C)C.O=P(O)(O)O` (stereo unspecified) belongs 1.18.
In the case of `CNC(=O)CSP(=S)(OC)OC` it was 1.07.
To `COc1cc2c(cc1O)CCNC2C` (stereo unspecified) belongs 1.26.
In turn, `CC(=O)[O][Pb][O]C(C)=O` registered a relative growth of 0.9.
In the case of `N#CCCN.O=C(O)/C=C/C(=O)O` it was 0.936; in that of `CP(=O)(O)C1=CCNCC1`, 0.999; in that of `O=c1n(Cl)c(=O)n(Cl)c(=O)n1Cl`, 0.964.
In the case of `N#CC(c1ccccc1)c1ccccc1` it was 0.676; in that of `O=C1NC(=S)NC(=O)C1c1ccccc1`, 0.838; in that of `O=C1CC2OCC=C3CN4CC[C@]56c7ccccc7N1C5[C@H]2[C@H]3CC46.O=S(=O)(O)O` (stereo partly specified), 0.602.
Take `COP(=O)(OC)C(O)C(Cl)(Cl)Cl` (stereo unspecified): the relative growth amounted to 0.94.
`C=CCc1ccc2c(c1)OCO2` showed a relative growth of 0.939.
To `O=C1NC(=O)C(=C[C@@H]2CC=CCC2)C(=O)N1` belongs 0.956.
`CC(C)[C@]12O[C@H]1[C@@H]1O[C@]13[C@]1(O[C@H]1C[C@H]1C4=C(CC[C@@]13C)C(=O)OC4)[C@@H]2O` showed a relative growth of 0.982.
As to `CC(=O)N[C@H]1C(=O)NC(=S)N(c2ccccc2)C1=O`, the relative growth amounted to 1.13.
Consider `C[C@@H]1NC[C@@H]2CCCN2C1=O`, for which the relative growth was found to be 1.08.
For the compound `CCC(COC(=O)c1cc(OC)c(OC)c(OC)c1)(c1ccccc1)N(C)C.O=C(O)/C=C\C(=O)O` (stereo unspecified), the relative growth stood at 1.
In the case of `S=C=NCc1ccccc1` it was 0.765; in that of `COP(=O)(OC)OC=C(Cl)Cl`, 0.979.
Consider `Cn1cc([C@@H](O)c2ccccc2)[n+](C)c1`, for which the relative growth came to 0.932.
In the case of `Nc1ccc(Cl)cc1Cl` it was 0.948; in that of `CCC1(c2ccccc2)C(=O)NC(=O)NC1=O`, 1.08; in that of `Cc1cccc(C)c1NC(=O)CN1CCCC1=O`, 1.17.
To `NNc1ccn([C@H]2O[C@@H](CO)[C@@H](O)[C@@H]2O)c(=O)n1` belongs 0.942; to `CCC(C)[C@H]1O[C@]2(C=C[C@@H]1C)C[C@@H]1C[C@@H](C/C=C(\C)[C@@H](OC3C[C@H](OC)C(O[C@H]4C[C@H](OC)[C@@H](O)[C@H](C)O4)[C@H](C)O3)[C@@H](C)/C=C/C=C3\CO[C@@H]4[C@H](O)C(C)=C[C@@H](C(=O)O1)[C@]34O)O2` (stereo partly specified) [ABAMECTIN (avermectin B1a shown)], 0.83; to `CN(C)C(=O)Oc1cccc([N+](C)(C)C)c1.[Br-]`, 1.02.
In the case of `CC(C)c1ccc2[nH]c(=O)c(CCN)cc2c1` it was 1.02; in that of `CC1(C)C2CC(=O)[C@]3(C)C(CC[C@@]4(C)[C@H](c5ccoc5)OC(=O)C5OC543)[C@@]2(C)[C@@H](O)C[C@H]1O` (stereo partly specified), 1.21.
Regarding `CCOC(=O)C1C(C=C(C)C)C1(C)C` (stereo unspecified), the relative growth is 0.995.
In the case of `COC1=C[C@@H]2[C@@H]3Cc4ccc(OC)c(O)c4[C@]2(CCN3C)CC1=O` it was 0.998.
The compound `CN[C@@H]1[C@@H](O)C(OC2[C@@H](N)C[C@@H](N)[C@H](O[C@H]3O[C@H](C(C)O)[C@@H](O)[C@H](O)[C@H]3N)[C@H]2O)OC[C@]1(C)O` (stereo partly specified) gave a relative growth of 0.121.
